# Target: T1, full-length B-Catenin (Uniprot ID P35222) (Homo sapiens, UniProt P35222)
# Amino acid sequences for entries named in this document (tags omitted).
# UniProt P35222, whole entry: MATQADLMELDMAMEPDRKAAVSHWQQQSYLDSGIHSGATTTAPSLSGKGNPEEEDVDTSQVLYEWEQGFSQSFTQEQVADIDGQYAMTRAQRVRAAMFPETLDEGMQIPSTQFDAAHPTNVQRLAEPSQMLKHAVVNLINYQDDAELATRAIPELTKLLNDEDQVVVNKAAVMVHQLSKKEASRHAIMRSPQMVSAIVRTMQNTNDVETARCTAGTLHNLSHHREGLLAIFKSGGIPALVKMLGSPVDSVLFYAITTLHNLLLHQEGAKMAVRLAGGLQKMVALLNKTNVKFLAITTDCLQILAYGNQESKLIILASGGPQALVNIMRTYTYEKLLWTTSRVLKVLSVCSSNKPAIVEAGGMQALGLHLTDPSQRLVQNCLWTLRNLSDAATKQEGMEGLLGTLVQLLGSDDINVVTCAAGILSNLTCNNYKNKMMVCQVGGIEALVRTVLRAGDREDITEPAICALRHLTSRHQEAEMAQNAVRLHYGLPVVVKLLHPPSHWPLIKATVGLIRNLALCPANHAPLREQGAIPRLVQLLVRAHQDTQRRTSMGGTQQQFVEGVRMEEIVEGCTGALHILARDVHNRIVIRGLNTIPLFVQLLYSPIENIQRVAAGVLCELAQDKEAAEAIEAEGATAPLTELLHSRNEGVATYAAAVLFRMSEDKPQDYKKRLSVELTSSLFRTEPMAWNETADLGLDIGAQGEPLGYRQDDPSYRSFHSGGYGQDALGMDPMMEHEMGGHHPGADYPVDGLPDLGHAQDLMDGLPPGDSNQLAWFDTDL
# T1 construct: 10 nM full-length B-Catenin (Uniprot ID P35222)
# Type: binding
# Details: competition fluorescence polarization; read-out: beta-Catenin FP IC50
row,Substance,IC50
1,Ac-PL3-Asp-Npg-B5-Asp-3COOHF-Aib-Ala-Phe-Lys*3-PyrS2-3Thi-BztA-GlnR*3-Val-Thr-[mPEG8]-Lys-NH2 [I-1818],< 0.05 µM
2,Ac-PL3-Asp-Npg-B5-Asp-3COOHF-Aib-Ala-Phe-Lys*3-PyrS2-3Thi-BztA-GlnR*3-[mPEG4]Lys-NH2 [I-1181],< 0.05 µM
3,Ac-PL3-Asp-Npg-B5-Asp-3COOHF-Aib-Ala-Phe-Lys*3-PyrS2-3Thi-BztA-GlnR*3-[mPEG8]Lys-NH2 [I-1182],< 0.05 µM
4,Ac-PL3-Asp-Npg-B5-Asp-3COOHF-Aib-Ala-Phe-Lys*3-PyrS2-3Thi-BztA-GlnR*3-[mPEG16]Lys-NH2 [I-1183],< 0.05 µM
5,Ac-PL3-Asp-Npg-B5-Asp-3COOHF-Aib-Ala-Phe-Lys*3-PyrS2-3Thi-BztA-GlnR*3-dAla-NH2 [I-459],< 0.05 µM
6,Ac-PL3-Asp-Npg-B5-Asp-3COOHF-Aib-Ala-Phe-Lys*3-PyrS2-Ala-BztA-GlnR*3-Ala-NH2 [I-267],0.2 to 0.75 µM
7,Ac-PL3-Asp-Npg-B5-Asp-3COOHF-Aib-Ala-Phe-Lys*3-PyrS2-CypA-2NapA-GlnR*3-Ala-NH2 [I-492],0.05 to 0.2 µM
8,Ac-PL3-Asp-Npg-B5-Asp-3COOHF-Aib-Ala-Phe-Lys*3-PyrS2-DipA-34ClF-GlnR*3-NH2 [I-1532],0.05 to 0.2 µM
9,Ac-PL3-Asp-Npg-B5-Asp-3COOHF-Aib-Ala-Phe-Lys*3-PyrS2-DipA-34ClF-GlnR*3-NH2 [I-1533],0.2 to 0.75 µM
10,Ac-PL3-Asp-Npg-B5-Asp-3COOHF-Aib-Ala-Phe-Lys*3-PyrS2-DipA-BztA-GlnR*3-NH2 [I-1536],0.05 to 0.2 µM
11,Ac-PL3-Asp-Npg-B5-Asp-3COOHF-Aib-Ala-Phe-Lys*3-PyrS2-HepG-34ClF-GlnR*3-Ala-NH2 [I-943],0.05 to 0.2 µM
12,Ac-PL3-Asp-Npg-B5-Asp-3COOHF-Aib-Ala-Phe-Lys*3-PyrS2-HepG-BztA-GlnR*3-Ala-NH2 [I-938],0.05 to 0.2 µM
13,Ac-PL3-Asp-Npg-B5-Asp-3COOHF-Aib-Ala-Phe-Lys*3-PyrS2-HepG-BztA-GlnR*3-Ala-NH2 [I-939],0.2 to 0.75 µM
14,Ac-PL3-Asp-Npg-B5-Asp-3COOHF-Aib-Ala-Phe-Lys*3-PyrS2-Phe-7ClBztA-GlnR*3-Ala-NH2 [I-1249],< 0.05 µM
15,Ac-PL3-Asp-Npg-B5-Asp-3COOHF-Aib-Ala-Phe-Lys*3-PyrS2-Phe-7ClBztA-GlnR*3-NH2 [I-1248],< 0.05 µM
16,Ac-PL3-Asp-Npg-B5-Asp-3COOHF-Aib-Ala-Phe-Lys*3-PyrS2-Phe-7FBztA-GlnR*3-Ala-NH2 [I-1247],< 0.05 µM
17,Ac-PL3-Asp-Npg-B5-Asp-3COOHF-Aib-Ala-Phe-Lys*3-PyrS2-Phe-7FBztA-GlnR*3-NH2 [I-1245],< 0.05 µM
18,Ac-PL3-Asp-Npg-B5-Asp-3COOHF-Aib-Ala-Phe-Lys*3-PyrS2-Phe-7MeBztA-GlnR*3-Ala-NH2 [I-1251],< 0.05 µM
19,Ac-PL3-Asp-Npg-B5-Asp-3COOHF-Aib-Ala-Phe-Lys*3-PyrS2-Phe-7MeBztA-GlnR*3-NH2 [I-1250],< 0.05 µM
20,Ac-PL3-Asp-Npg-B5-Asp-3COOHF-Aib-Ala-Phe-Lys*3-PyrS2-Phe-34MeF-GlnR*3-NH2 [I-1103],< 0.05 µM
21,Ac-PL3-Asp-Npg-B5-Asp-3COOHF-Aib-Ala-Phe-Lys*3-PyrS2-Phe-BztA-GlnR*3-NH2 [I-1242],< 0.05 µM

row,Substance,IC50
1,Ac-PL3-Asp-Npg-B5-Asp-3COOHF-Aib-Ala-Phe-Lys*3-PyrS2-[2IAPAc]2NH2F-BztA-GlnR*3-Ala-NH2 [I-1668],< 0.05 µM
2,Ac-PL3-Asp-Npg-B5-Asp-3COOHF-Aib-Ala-Phe-Lys*3-PyrS2-[2PyAc]2NH2F-BztA-GlnR*3-Ala-NH2 [I-1740],< 0.05 µM
3,Ac-PL3-Asp-Npg-B5-Asp-3COOHF-Aib-Ala-Phe-Lys*3-PyrS2-[2PyCypCO]2NH2F-BztA-GlnR*3-Ala-NH2 [I-1672],< 0.05 µM
4,Ac-PL3-Asp-Npg-B5-Asp-3COOHF-Aib-Ala-Phe-Lys*3-PyrS2-[2PyPrpc]2NH2F-BztA-GlnR*3-Ala-NH2 [I-1741],< 0.05 µM
5,Ac-PL3-Asp-Npg-B5-Asp-3COOHF-Aib-Ala-Phe-Lys*3-PyrS2-[2PyzCO]2NH2F-BztA-GlnR*3-Ala-NH2 [I-1755],< 0.05 µM
6,Ac-PL3-Asp-Npg-B5-Asp-3COOHF-Aib-Ala-Phe-Lys*3-PyrS2-[3FPyr2c]2NH2F-BztA-GlnR*3-Ala-NH2 [I-1763],0.05 to 0.2 µM
7,Ac-PL3-Asp-Npg-B5-Asp-3COOHF-Aib-Ala-Phe-Lys*3-PyrS2-[3IAPAc]2NH2F-BztA-GlnR*3-Ala-NH2 [I-1751],< 0.05 µM
8,Ac-PL3-Asp-Npg-B5-Asp-3COOHF-Aib-Ala-Phe-Lys*3-PyrS2-[3PyAc]2NH2F-BztA-GlnR*3-Ala-NH2 [I-1671],0.2 to 0.75 µM
9,Ac-PL3-Asp-Npg-B5-Asp-3COOHF-Aib-Ala-Phe-Lys*3-PyrS2-[3PyPrpc]2NH2F-BztA-GlnR*3-Ala-NH2 [I-1742],< 0.05 µM
10,Ac-PL3-Asp-Npg-B5-Asp-3COOHF-Aib-Ala-Phe-Lys*3-PyrS2-[4FPyr3c]2NH2F-BztA-GlnR*3-Ala-NH2 [I-1764],< 0.05 µM
11,Ac-PL3-Asp-Npg-B5-Asp-3COOHF-Aib-Ala-Phe-Lys*3-PyrS2-[4PyPrpc]2NH2F-BztA-GlnR*3-Ala-NH2 [I-1743],< 0.05 µM
12,Ac-PL3-Asp-Npg-B5-Asp-3COOHF-Aib-Ala-Phe-Lys*3-PyrS2-[5pymCO]2NH2F-BztA-GlnR*3-Ala-NH2 [I-1756],< 0.05 µM
13,Ac-PL3-Asp-Npg-B5-Asp-3COOHF-Aib-Ala-Phe-Lys*3-PyrS2-[6QuiAc]2NH2F-BztA-GlnR*3-Ala-NH2 [I-1739],< 0.05 µM
14,Ac-PL3-Asp-Npg-B5-Asp-3COOHF-Aib-Ala-Phe-Lys*3-PyrS2-[124TriAc]2NH2F-BztA-GlnR*3-Ala-NH2 [I-1737],< 0.05 µM
15,Ac-PL3-Asp-Npg-B5-Asp-3COOHF-Aib-Ala-Phe-Lys*3-PyrS2-[124TriPr]2NH2F-BztA-GlnR*3-Ala-NH2 [I-1738],< 0.05 µM
16,Ac-PL3-Asp-Npg-B5-Asp-3COOHF-Aib-Ala-Phe-Lys*3-PyrS2-[BiPh]2NH2F-BztA-GlnR*3-Ala-NH2 [I-1664],< 0.05 µM
17,Ac-PL3-Asp-Npg-B5-Asp-3COOHF-Aib-Ala-Phe-Lys*3-PyrS2-[BiPh]2NH2F-BztA-GlnR*3-Ala-NH2 [I-1665],0.05 to 0.2 µM
18,Ac-PL3-Asp-Npg-B5-Asp-3COOHF-Aib-Ala-Phe-Lys*3-PyrS2-[Bnc]2NH2F-BztA-GlnR*3-Ala-NH2 [I-1660],< 0.05 µM
19,Ac-PL3-Asp-Npg-B5-Asp-3COOHF-Aib-Ala-Phe-Lys*3-PyrS2-[Bnc]2NH2F-BztA-GlnR*3-Ala-NH2 [I-1661],0.2 to 0.75 µM
20,Ac-PL3-Asp-Npg-B5-Asp-3COOHF-Aib-Ala-Phe-Lys*3-PyrS2-[Me2MeOPr]2NH2F-BztA-GlnR*3-Ala-NH2 [I-1746],0.75 to 1 µM
21,Ac-PL3-Asp-Npg-B5-Asp-3COOHF-Aib-Ala-Phe-Lys*3-PyrS2-[Me2NAc]2NH2F-BztA-GlnR*3-Ala-NH2 [I-1747],< 0.05 µM

row,Substance,IC50
1,Ac-PL3-Asp-Npg-B5-Asp-3COOHF-Aib-Ala-Phe-Lys*3-PyrS2-[Me2NAc]2NH2F-BztA-GlnR*3-Ala-NH2 [I-1748],0.2 to 0.75 µM
2,Ac-PL3-Asp-Npg-B5-Asp-3COOHF-Aib-Ala-Phe-Lys*3-PyrS2-[Me2NPr]2NH2F-BztA-GlnR*3-Ala-NH2 [I-1749],< 0.05 µM
3,Ac-PL3-Asp-Npg-B5-Asp-3COOHF-Aib-Ala-Phe-Lys*3-PyrS2-[MeOPr]2NH2F-BztA-GlnR*3-Ala-NH2 [I-1744],0.2 to 0.75 µM
4,Ac-PL3-Asp-Npg-B5-Asp-3COOHF-Aib-Ala-Phe-Lys*3-PyrS2-[MePipAc]2NH2F-BztA-GlnR*3-Ala-NH2 [I-1666],< 0.05 µM
5,Ac-PL3-Asp-Npg-B5-Asp-3COOHF-Aib-Ala-Phe-Lys*3-PyrS2-[MorphAc]2NH2F-BztA-GlnR*3-Ala-NH2 [I-1753],< 0.05 µM
6,Ac-PL3-Asp-Npg-B5-Asp-3COOHF-Aib-Ala-Phe-Lys*3-PyrS2-[NdiMeButC]2NH2F-BztA-GlnR*3-Ala-NH2 [I-1750],0.05 to 0.2 µM
7,Ac-PL3-Asp-Npg-B5-Asp-3COOHF-Aib-Ala-Phe-Lys*3-PyrS2-[Nic]2NH2F-BztA-GlnR*3-Ala-NH2 [I-1754],< 0.05 µM
8,Ac-PL3-Asp-Npg-B5-Asp-3COOHF-Aib-Ala-Phe-Lys*3-PyrS2-[PhOPr]2NH2F-BztA-GlnR*3-Ala-NH2 [I-1745],0.05 to 0.2 µM
9,Ac-PL3-Asp-Npg-B5-Asp-3COOHF-Aib-Ala-Phe-Lys*3-PyrS2-[Phc]2NH2F-BztA-GlnR*3-Ala- [I-1663],0.75 to 1 µM
10,Ac-PL3-Asp-Npg-B5-Asp-3COOHF-Aib-Ala-Phe-Lys*3-PyrS2-[Phc]2NH2F-BztA-GlnR*3-Ala-NH2 [I-1662],0.05 to 0.2 µM
11,Ac-PL3-Asp-Npg-B5-Asp-3COOHF-Aib-Ala-Phe-Lys*3-PyrS2-c6Phe-BztA-GlnR*3-Ala-NH2 [I-1161],0.05 to 0.2 µM
12,Ac-PL3-Asp-Npg-B5-Asp-3COOHF-Aib-Ala-Phe-Lys*3-PyrS2-hCbA-34ClF-GlnR*3-Ala-NH2 [I-1320],< 0.05 µM
13,Ac-PL3-Asp-Npg-B5-Asp-3COOHF-Aib-Ala-Phe-Lys*3-PyrS2-hCbA-34ClF-GlnR*3-Val-Glu-Ala-NH2 [I-1348],< 0.05 µM
14,Ac-PL3-Asp-Npg-B5-Asp-3COOHF-Aib-Ala-Phe-Lys*3-PyrS2-hCbA-BztA-GlnR*3-Ala-NH2 [I-1317],< 0.05 µM
15,Ac-PL3-Asp-Npg-B5-Asp-3COOHF-Aib-Ala-Phe-Lys*3-PyrS2-hCbA-BztA-GlnR*3-Val-Glu-Ala-NH2 [I-1345],< 0.05 µM
16,Ac-PL3-Asp-Npg-B5-Asp-3COOHF-Aib-Ala-Phe-Lys*3-PyrS2-hCha-34ClF-GlnR*3-Ala-NH2 [I-1322],< 0.05 µM
17,Ac-PL3-Asp-Npg-B5-Asp-3COOHF-Aib-Ala-Phe-Lys*3-PyrS2-hCha-34ClF-GlnR*3-Val-Glu-Ala-NH2 [I-1350],< 0.05 µM
18,Ac-PL3-Asp-Npg-B5-Asp-3COOHF-Aib-Ala-Phe-Lys*3-PyrS2-hCha-BztA-GlnR*3-Ala-NH2 [I-1319],0.05 to 0.2 µM
19,Ac-PL3-Asp-Npg-B5-Asp-3COOHF-Aib-Ala-Phe-Lys*3-PyrS2-hCha-BztA-GlnR*3-Val-Glu-Ala-NH2 [I-1347],< 0.05 µM
20,Ac-PL3-Asp-Npg-B5-Asp-3COOHF-Aib-Ala-Phe-Lys*3-PyrS2-hCypA-34ClF-GlnR*3-Ala-NH2 [I-1321],< 0.05 µM
21,Ac-PL3-Asp-Npg-B5-Asp-3COOHF-Aib-Ala-Phe-Lys*3-PyrS2-hCypA-34ClF-GlnR*3-Val-Glu-Ala-NH2 [I-1349],< 0.05 µM
